Measured values from article PMC4704150 (Antimicrobial Agents and Chemotherapy, 2015).
Marks after values point to notes of the source that are not given here.

Conditions: human, in vivo

buprenorphine
AUC (AUCtau, AUC24), dose normalized, Alone: 4,610 (46)^d^,^j pg · h/ml/mg | AUC (AUCtau, AUC24), dose normalized, Coadministration: 6,940 (38)^d^,^j pg · h/ml/mg | Cmax, dose normalized, Alone: 642 (43)^i pg/ml/mg | Cmax, dose normalized, Coadministration: 764 (38)^i pg/ml/mg | increase in AUC upon coadministration: 51% | increase in Cmax upon coadministration: 19%
